# Assay results reported in ChEMBL document CHEMBL1129591 (J Med Chem, 1996).
# Protein sequences, listed by entry. Tags and fused reporters are not part of them.
# UniProt P08908, whole entry: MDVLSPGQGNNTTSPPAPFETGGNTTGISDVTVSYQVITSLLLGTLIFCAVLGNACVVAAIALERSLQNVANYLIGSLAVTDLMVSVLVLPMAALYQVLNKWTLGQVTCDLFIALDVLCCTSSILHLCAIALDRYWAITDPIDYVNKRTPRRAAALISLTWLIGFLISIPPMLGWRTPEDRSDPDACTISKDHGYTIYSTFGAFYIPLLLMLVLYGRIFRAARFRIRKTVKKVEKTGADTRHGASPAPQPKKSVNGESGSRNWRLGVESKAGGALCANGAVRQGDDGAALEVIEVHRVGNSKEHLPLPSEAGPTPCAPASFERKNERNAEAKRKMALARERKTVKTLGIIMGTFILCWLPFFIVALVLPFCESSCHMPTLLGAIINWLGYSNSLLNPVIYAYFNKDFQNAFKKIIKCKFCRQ
# Molecular target: 5-hydroxytryptamine receptor 1A (Homo sapiens, UniProt P08908)
# Test: Ability to inhibit the forskolin-stimulated c-AMP formation mediated by human 5-hydroxytryptamine 1A receptor in CHO-K1 cells
# Assay type: functional, cell-based
smiles,measurement,value
CC(=O)Nc1ccc(N2CCN(C(=O)COc3ccc4[nH]cc(CCN)c4c3)CC2)cc1,Ki,0.134 µM
